# Experiments:
# Chains of the proteins cited; added tags and fusions are not shown. Residues count along the entry.
# UniProt P20036, 29-222, chain 1 of 2: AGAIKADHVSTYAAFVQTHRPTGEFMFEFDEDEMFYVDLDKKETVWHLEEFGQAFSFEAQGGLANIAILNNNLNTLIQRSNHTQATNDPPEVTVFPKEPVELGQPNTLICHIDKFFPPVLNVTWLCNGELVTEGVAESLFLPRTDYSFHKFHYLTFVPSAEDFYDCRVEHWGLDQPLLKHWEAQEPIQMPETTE
# [1] = target: HLA-DP401 (DPB1*0401) (human) (UniProt P20036); experiment: competition binding
# [2] = target: HLA-DP402 (DPB1*0402) (human) (UniProt P20036); experiment: competition binding
# DR13 (human) = DR13 (human) (UniProt P01903); experiment: competition
# DR15 (human) = DR15 (human) (UniProt P01903); experiment: competition
IC50 (DR13 (human)) [µM],IC50 (DR15 (human)) [µM],Substance,IC50 [1] [µM],IC50 [2] [µM]
,,14N 1149-1172,> 100,> 100
,,5C 127-149,,5.43
> 100,1.25,4C104-133,,

# — patent US20060110401A1, “Mixture of peptides from c and ns3 proteins of the hepatitis c virus and applications thereof” (priority 2002, published 2006)
